For experiment [1], the species on record is Homo sapiens. Briefly: Selectivity ratio of IC50 for human N-terminal Flag-tagged MAOA to IC50 for human recombinant LSD1 (852 residues).
For experiment [2], the species on record is Homo sapiens. Briefly: Selectivity ratio of IC50 for human N-terminal Flag-tagged MAOB to IC50 for human recombinant LSD1 (852 residues).
The species entered for experiment [3] is Homo sapiens. Briefly: Selectivity ratio of IC50 for human ERG to IC50 for human recombinant LSD1 (852 residues).

Results on 1 compound are retold here after ChEMBL document CHEMBL6134819, “Discovery of novel tranylcypromine-indazole-based derivatives as LSD1 inhibitors for acute myeloid leukemia treatment” (Eur J Med Chem, 2025).

Regarding `Cl.O=S(=O)(c1ccccc1)n1ncc2cc(-n3cc(CN[C@@H]4C[C@H]4c4ccc(F)c(F)c4)nn3)ccc21`, the Ratio IC50 in the experiment filed under Homo sapiens [1] is 85.2; in the experiment filed under Homo sapiens [2], 269; in the experiment filed under Homo sapiens [3], 58.4.
